The numbers were not newly measured in patent publication US8507550B2, “Treatment for altitudinal hypoxia” (AesRx LLC, priority 2010, dated 2013), which cites them from elsewhere.

Molecules are shown by their SMILES.

In this series the test system is rats. Particulars: males; cited from earlier work.

For `O=Cc1ccc(CO)o1` [5-HMF, 5-hydroxymethyl-2-furfural], the “acute oral LD50” value is 2500 mg/kg.
